Earlier results on one substance are cited in patent publication US20140271726A1, “COMPOSITIONS AND METHODS FOR […] SUSCEPTIBILITY TO ANTIVIRAL AGENTS” (WISCONSIN ALUMNI RESEARCH FOUNDATION, priority 2013, published 2014).

The test system of the series is HCV. Conditions: six-month course, patients with chronic hepatitis C, p=0.01.

Regarding “interferon alone: alpha interferon used for HCV treatment in the cited Japanese trial”, the sustained virological responses is given as 32%.
